Measurements from US10251889B2, “Substituted pyrazolo[1,5-a]pyrimidine compounds as Trk kinase inhibitors” (Array BioPharma, Inc., priority 2009, dated 2019).

Sequences of proteins named here, by UniProt entry; tags and fusion partners are left off. Residues count along the entry.
UniProt O60674, 808-1132: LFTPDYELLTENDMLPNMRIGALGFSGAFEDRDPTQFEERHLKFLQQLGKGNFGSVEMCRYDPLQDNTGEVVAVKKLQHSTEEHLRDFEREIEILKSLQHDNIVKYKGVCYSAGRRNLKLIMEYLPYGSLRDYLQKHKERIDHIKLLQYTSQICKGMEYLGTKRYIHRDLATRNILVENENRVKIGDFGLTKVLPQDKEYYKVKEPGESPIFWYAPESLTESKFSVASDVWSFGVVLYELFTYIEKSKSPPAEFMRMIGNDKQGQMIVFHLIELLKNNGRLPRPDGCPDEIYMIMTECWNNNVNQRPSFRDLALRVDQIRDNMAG

Target: Jak2 (human Jak2 kinase domain, amino acids 808-1132) (Homo sapiens (Human), UniProt O60674)
Assay: Jak2 inhibition assay (Omnia kinase assay)
Format: biochemical
Settings: read-out: Jak2 Enzyme (% inhibition at 1000 nM), Table 1; 1000 nM test compound
Experimental: The assays described in Examples C, D, E and F for the determination of JAK1, JAK2, JAK3 and Tyk2 kinase activity, respectively, utilized the Omnia® Kinase fluorescence peptide substrate-based technology (Invitrogen). […] The reactions were therefore read at excitation 360 nm and emission was measured at 485 nm every 50 seconds for 45 minutes using a PerkinElmer EnVision Multilabel Plate Reader.
The final buffer conditions for each of the JAK1, JAK2, JAK3 and Tyk2 assays were as follows: 25 mM HEPES, pH 7.4, 10 mM MgCl2, 0.01% Triton X-100 and 1 mM DTT.
Two-μL aliquots of these were transferred to a fresh plate for a ten-fold intermediate dilution with assay buffer. Five-μL aliquots of the diluted compounds were then transferred to 20-μL of assay mixtures described in Examples C, D, E and F for a final concentration of DMSO of 2%. […] For each plate, percent of control (POC) values were calculated for each well according to the following equation:
where Xmax=Average Uninhibited Controls • Xmin=Average Background IC50's were estimated from the POC's using a standard 4-parameter logistic model:
where A=Minimum Y (Bottom Asymptote) • B=Maximum Y (Top Asymptote) • C=EC50 • D=Slope Factor • X=Compound Concentration (nM) • Y=POC
The IC50 is defined as the concentration of inhibitor at which the POC equals 50 for the fitted curve. […]

- inhibition at 1 µM: 21.1%
SMILES: CC(CO)(CO)NC(=O)c1cnn2ccc(N3CCC[C@@H]3c3cc(F)ccc3F)nc12 [Example 60, (R)-5-(2-(2,5-difluorophenyl)pyrrolidin-1-yl)-N-(1,3-dihydroxy-2-methylpropan-2-yl)pyrazolo[1,5-a]pyrimidine-3-carboxamide]
